Apparent affinities of Ab-14 variants for a coronavirus HR2 peptide

All variants were tested on one target, the spike HR2 peptide PDVDLGDISGINAS (SARS-CoV-2).

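Designed CDR sequences, proposed from the first random library and measured here. Several design methods are mixed in this list. AlphaSeq pools MATa yeast showing the antibodies with MATalpha yeast showing the peptide. After mating in shaken culture at 30 °C for 16 h, diploids were selected and their barcode pairs sequenced. The ratio of observed to expected reads was calibrated, replicate by replicate, on BCL2-family standards whose Kd was known from biolayer interferometry. The assay was run in six technical replicates.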

Ab-14 is the parent antibody, in scFv form: VH, then three GGGGS repeats, then VL. The light chain is unchanged in all variants.
VH: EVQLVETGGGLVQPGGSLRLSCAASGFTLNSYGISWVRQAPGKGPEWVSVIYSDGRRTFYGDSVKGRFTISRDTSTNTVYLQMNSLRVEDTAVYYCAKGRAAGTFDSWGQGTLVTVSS
VL: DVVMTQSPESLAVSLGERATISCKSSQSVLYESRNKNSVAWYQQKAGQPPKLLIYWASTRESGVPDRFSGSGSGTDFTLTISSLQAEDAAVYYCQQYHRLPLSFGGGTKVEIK

Changes read parent residue, position, new residue, counted from the first residue of the VH shown. This list holds designs with at most six substitutions. Kd is apparent (estimated from mating counts) and averaged on the log scale over replicates with a signal. Smaller is tighter. A pair that was not seen in any replicate is written "nd"; this usually means weak binding, but a binder can also be missed. Nonspecific signal, from three strains lacking the peptide, appeared in 1% of pairings of all heavy chain designs, centred on 120 nM (5% of these signals below 7.0 nM); values are not corrected for it. Values of this round are not directly comparable with the first-round values of the same sequences. In the paper, a design with two or fewer of six values counts as a poor binder.

Variant S31Q/T58Q/F59S/G61S/T104F gave nd (0 of 6 replicates). Variant T28D/R100N/S107F showed 180 nM (5 of 6 replicates). For G26D/S53A/G99I/R100F, the assay gave nd (0 of 6 replicates). With F27T/R100A/A101V the result was 13 nM (6 of 6 replicates). Variant F105K/D106H showed nd (0 of 6 replicates). With N30E/A101I the result was 33 nM (6 of 6 replicates). With T28D/T104M/D106R the result was nd (0 of 6 replicates). For T28S/F59A/S63N/A101T, the assay gave 700 pM (6 of 6 replicates). Variant T28E/R100Q/S107D showed 98 nM (1 of 6 replicates).

For S31E/S53A/G61S/K65Y/A101L/T104S, the assay gave 670 pM (6 of 6 replicates). Variant T28N/S63F/G103I gave nd (0 of 6 replicates). Variant T28D/S31N/A101T/S107T showed 720 pM (6 of 6 replicates). Variant T28D/G61I/G103V gave nd (0 of 6 replicates). Variant T28E/S31E/R100E/S107V showed 1.2 nM (6 of 6 replicates). With T28S/G61A/S63D/R100K/A101T the result was nd (0 of 6 replicates). Variant T28S/G61T/R100I showed 1.2 nM (4 of 6 replicates). With S31D/G61K/A101Q/D106I the result was nd (0 of 6 replicates). Variant T28D/S63R/A101Q gave 4.9 nM (6 of 6 replicates).

Variant R57K/G61Q gave 110 nM (1 of 6 replicates). For T28E/G61I/R100N/A101V, the assay gave 2.0 nM (6 of 6 replicates). Variant F27I/F59S/S107H showed 8.0 nM (4 of 6 replicates). Variant T28S/G61Q/S63D/A101T showed 1.1 nM (6 of 6 replicates). With T28E/R100E the result was 14 nM (4 of 6 replicates). Variant S31E/G61D/A101M showed 1.0 nM (6 of 6 replicates). Variant T28D/L29V/T104W/D106N gave 42 nM (1 of 6 replicates). Variant T28S/S53A/F59Y/G61L/A101N gave 590 pM (6 of 6 replicates). Variant T28E/A101E showed 5.0 nM (4 of 6 replicates).

For S31D/G61Q/A101T, the assay gave 29 nM (6 of 6 replicates). Variant T28D/G61I/R100S/S107A showed 710 pM (6 of 6 replicates). With T28S/S53A/R100Q/S107R the result was 420 pM (6 of 6 replicates). Variant T28Q/R100N gave 32 nM (6 of 6 replicates). With T28Q/S31E/G61Q/A101H the result was 4.3 nM (6 of 6 replicates). Variant T28N/G61A/S63D/A101T showed 7.5 nM (6 of 6 replicates). For T28Q/S31E/G61S/T104H, the assay gave nd (0 of 6 replicates). For T28A/S31E/R100K, the assay gave 3.7 nM (6 of 6 replicates). Variant T28D/T104V showed 300 nM (1 of 6 replicates).

For N30D/G61I/R100N, the assay gave 1.1 nM (6 of 6 replicates). For T28S/G61D/R100Q/A101V/T104K, the assay gave 5.4 nM (6 of 6 replicates). With L29G/S31D/F59Q/Y60R/G61I/F105R the result was nd (0 of 6 replicates). Variant T28S/G61S/A102G/T104K showed nd (0 of 6 replicates).

The last 6 entries again:

changes	Kd (apparent)	detected
T28A/S31E/R100K	3.7 nM	6 of 6
T28D/T104V	300 nM	1 of 6
N30D/G61I/R100N	1.1 nM	6 of 6
T28S/G61D/R100Q/A101V/T104K	5.4 nM	6 of 6
L29G/S31D/F59Q/Y60R/G61I/F105R	nd	0 of 6
T28S/G61S/A102G/T104K	nd	0 of 6

Reference: Li et al. 2023, doi:10.1038/s41467-023-39022-2. File: FLAb, binding data.